Where two headings read alike, the source gives them in different places.
Experiments:
[1] = molecular target: G-protein-linked cannabinoid receptors (Rattus norvegicus, UniProt P20272); test: GTP-γ-[35S] binding in whole rat brain; format: biochemical; conditions: read-out: EC50, GTP-γ-[35S] in Whole Rat Brain; whole rat brain membranes; inverse agonist/antagonist activity
CB1 receptor = CB1 receptor (Rattus norvegicus, UniProt P20272); test: Radioligand displacement in whole rat brain (CB1) membrane preparations

By UniProt entry, the sequences of proteins in these tests, tags left out.
UniProt P20272, whole entry: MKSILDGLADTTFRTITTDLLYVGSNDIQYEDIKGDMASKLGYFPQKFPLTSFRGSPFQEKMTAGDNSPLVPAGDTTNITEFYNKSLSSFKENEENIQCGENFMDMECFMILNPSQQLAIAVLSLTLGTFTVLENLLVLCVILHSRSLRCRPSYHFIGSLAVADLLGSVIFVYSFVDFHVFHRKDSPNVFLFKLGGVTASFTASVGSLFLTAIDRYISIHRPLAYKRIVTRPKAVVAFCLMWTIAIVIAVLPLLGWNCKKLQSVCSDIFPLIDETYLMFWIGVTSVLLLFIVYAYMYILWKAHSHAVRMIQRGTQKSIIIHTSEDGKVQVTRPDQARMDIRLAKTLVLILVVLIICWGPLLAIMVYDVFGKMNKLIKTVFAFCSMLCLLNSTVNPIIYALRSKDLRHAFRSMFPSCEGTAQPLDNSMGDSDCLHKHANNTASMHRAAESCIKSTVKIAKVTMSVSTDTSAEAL

Question: How did the EC50 [1] turn out when SR144528 [reference compound] was run?
Answer: 8.14 µM

Question: What about the Ki (CB1 receptor; read-out: Ki, displacement of 3H-CP55940, whole rat brain membranes, radioligand 3H-CP55940, Tables 1 and 2) of the same substance?
Answer: 0.0741 µM

Question: And the Ki (CB1 receptor; read-out: Ki, displacement of 3H-CP55940, whole rat brain, 3H-CP55940, Table 4, parallel synthesis analogs, n = 1, concentration assumes 100% yield)?
Answer: 0.0741 µM

Question: What about the Ki (CB1 receptor; read-out: Ki, displacement of 3H-SR141716A, whole rat brain membranes, radioligand 3H-SR141716A, Tables 1 and 2) of the same substance?
Answer: 0.0817 µM

Question: What about the Ki (CB1 receptor; read-out: Ki, displacement of 3H-SR141716A, whole rat brain, 3H-SR141716A, Table 4, parallel synthesis analogs, n = 1, concentration assumes 100% yield) of the same substance?
Answer: 0.0817 µM
